Experimental data from publication PMC2174572 (The Journal of Cell Biology, 2000).

Biological target: nucleolin purified from K562 cells (human (endogenous in K562))
Assay: co-IP

binding result: binds
B1: His6-tagged hRPA3 (His-hRPA3) (natural protein)
chain: MVDMMDLPRSRINAGMLAQFIDKPVCFVGRLEKIHPTGKMFILSDGEGKNGTIELMEPLDEEISGIVEVVGRVTAKATILCTSYVQFKEDSHPFDLGLYNEAVKIIHDFPQFYPLGIVQHD
